Consider 1 substance from patent US8835379B2, “Derivatives of CGRP” (Novo Nordisk A/S, priority 2009, dated 2014).

The nature of this series: Pharmacokinetic properties of CGRP and analogues, plasma level by CGRP ELISA. In kind it is in vivo, Sprague Dawley rats. Conditions: SD rats, single s.c. injection; Analog alpha1 151 nmol/kg, Analogue beta1 231 nmol/kg. Here is the method:
Male Sprague Dawley rats (n=24) weighing approximately 250 g were used for the combined pharmacokinetic (T½, Cmaxetc.) and pharmacodynamic (GLP-1 release) study. The rats were divided in 4 groups with n=6 rats per group. The rats were treated with a single subcutaneous injection (1 ml/kg) of vehicle, alpha-CGRP (138 nmol/kg), Analogue beta1 (231 nmol/kg) or Analog alpha1 (151 nmol/kg). Blood (200 μl) was sampled from vena sublingualis from unanaesthetised rats pre-dose and at 0.5, 1, 3, 7 and 24 hours post dosing. Blood was collected in tubes containing EDTA. The samples were kept on ice and centrifuged. The plasma was kept at −20° C. until analysis for CGRP analog and total GLP-1.
A commercial available kit (Human CGRP ELISA, cat. #A05481, SPIbio) was used for monitoring the plasma levels of CGRP-analogues. Briefly, the assay was a two-sited enzyme-linked immuno sorbent assay (ELISA) using two antibodies against human CGRP. A monoclonal antibody was immobilized to the surface of micro plate wells. Five micro liter of plasma samples or calibrators were applied to the appropriate wells and incubated for 2 hours together with 100 μL buffer and 100 μL AChE-conjugated Fab′ fragment. […] The color intensity was determined by spectrophotometer at 405 nm. […] The lower limit of quantification of the modified CGRP assay was approximately 750 pM and the imprecision was (% CV)<10%.
For orientation: An ELISA detects its analyte on a solid surface through an enzyme-linked reagent.

Broadly, the Cmax is the peak of the concentration-time curve. Turning to “N-alpha-[2-(2-{2-[(S)-4-Carboxy-4-(17-carboxyheptadecanoylamino)butyrylamino]ethoxy}ethoxy)acetyl][Ser1]beta-human CGRP peptide [Analogue beta 1]”, the Cmax is 210 nM and the T½ was >7 h.
